From US20230160021A1, “METHOD FOR THE DETECTION OF A SEXUALLY TRANSMITTED INFECTIOUS PATHOGEN” (SELFDIAGNOSTICS DEUTSCHLAND GMBH, priority 2016, published 2023)

What was measured:
[1] = system: E. coli; experiment: Loop-mediated isothermal amplification directly from E. coli cell lysates after pretreatment of urine spiked E. coli; assay type: cell-based, Escherichia coli; settings: 50 μM peptide, 5 min at RT, LAMP (FIG. 6)
Method: Loop-mediated isothermal amplification directly from E. coli cell lysates. Isothermal amplification after pretreatment of urine spiked E. coli with different lysate preparation techniques. Lysozyme was used at 1 mg/ml concentration, polyethylene glycol p-(1,1,3,3-tetramethylbutyl)-phenyl ether at 1% and peptides at 50 μM concentration for the biological sample treatment. All sample pretreatments were performed for 5 min at RT° C. (except for heat treatment that was incubated at 95° C.).
A biological sample containing E. coli bacteria (urine sample in FIG. 6) is treated with 50 μM antimicrobial peptide belonging to but not limited to cecropin group (Cecropin P1 or SB-37 in FIG. 6) for 5 min at RT° C. 5 μl of the urine sample is added directly to the loop-mediated amplification reaction, so that final reaction volume is 50 μl and final components concentration as follows: 0.2 μM F3 primer, 0.2 μM B3 primer, 1.6 μM BIP primer, 1.6 μM FIP primer, 0.8 μM LF primer, 0.8 μM LB primer, 8 mM MgSO4, 1.4 mM dNTP, 0.8M betain, 20 mM Tris-HCl pH 8.8, 10 mM KCl, 10 mM (NH4)2SO4, 0.1% (v/v) Tween 20 and 16 units of Bsm polymerase.
In the example of E. coli detection from FIG. 6, pretreatment of the urine samples with antimicrobial peptides gave up to 6 times increased amount of target DNA. […]

[2] = system: LAMP reaction; experiment: LAMP amplification activity in the presence of lytic agents / lytic peptides; assay type: biochemical; settings: 5 μM antimicrobial peptide in LAMP reaction
Method: Loop-mediated isothermal amplification activity in the presence of different lytic agents. Percentage of amplification activity in the presence of 0.1% polyethylene glycol p-(1,1,3,3-tetramethylbutyl)-phenyl ether, 0.1 mg/ml lysozyme (with or without 0.1% polyethylene glycol p-(1,1,3,3-tetramethylbutyl)-phenyl ether or 1 mM EDTA) or alkaline lysis components.
Loop-mediated isothermal amplification activity in the presence of different lytic peptides. Percentage of amplification activity in the presence of 5 μM antimicrobial peptides.
To estimate potential inhibitory effect of different lysate preparation methods (alkaline, enzymatic, detergent lysis) and of antimicrobial peptides on downstream application efficiency, we have performed LAMP isothermal amplification in the presence of different lytic agents (FIG. 4-5).

SB-37
increase of the target DNA available for the isothermal amplification [1]: 2 times | inhibiting effect on the LAMP amplification efficiency [2]: only mild inhibition
